According to PMC7349888, “Synthesis and Evaluation of Dodecaboranethiol Containing Kojic Acid (KA-BSH) as a Novel Agent for Boron Neutron Capture Therapy” (Cells, 2020):
Values joined by “and” are separate entries in the source; they are usually repeats but may differ in a detail not shown here. Equal entries are not always repeated.

Tested on: F98 glioma bearing rats
Assay: Biodistribution in F98 glioma bearing rats (ICP-AES)
Format: in vivo, rat
Conditions: iv
Text: All animal experimental procedures were approved by the Animal Use Review Board and Ethical Committee of Osaka Medical College (No. 25092, 28 October 2015) and Kyoto University Research Reactor Institute (KURRI, No. 25030-13, 1 April 2015), and performed following the Guide for the Care and Use of Laboratory Animals. Eight-week-old, male Fischer 344 rats weighing between 200 and 250 g were used (Japan SLC, Inc. Shizuoka, Japan). Rats were anesthetized with an intraperitoneal (ip) injection of a mixture of medetomidine 0.15 mg, midazolam 2 mg, and butorphanol 2.5 mg/kg body weight (bw). The head of each rat was fixed with a stereotactic frame (Model 900; David Kopf Instruments, Tujunga, CA, USA). The scalp was incised at the midline and a small burr hole was drilled into the skull (1 mm posterior and 4 mm right-lateral to the bregma), using an electric drill. And then, F98 glioma cells were injected into the brain using a 25 µL Hamilton microsyringe with a 26-gauge needle (model 1700 RN, Hamilton Bonaduz AG, Bonaduz, Switzerland). The needle was inserted at a 5 mm depth from the skull and F98 cells were diluted in 10 µL of DMEM containing low-gelling temperature agarose at a concentration of either 10^3 for therapeutic experiments or 10^5 cells for biodistribution experiments. They were injected over 30 s using an automatic infuser pump. The needle entry hole was immediately sealed with bone wax and the incised scalp was closed with 3-0 silk sutures (Ethicon, North Ryde, NSW). After surgery, all animals were given atipamezole hydrochloride (0.15 mg/kg bw, ip).
Biodistribution studies were performed in Fischer rats bearing intracerebral implants of F98 rat glioma cells. 10–13 days after tumor implantation of 10^5 F98 glioma cells, when signs of a progressively growing tumor were evident (weight loss, lethargy, hunching, and ataxia), biodistribution studies were initiated at which time the animals had tumors weighing 90–180 mg. […] To compare its biodistribution with that of BPA or BSH, another group of rats received an iv injection of BPA at a concentration of 10 mg ^10B/kg bw or BSH at a concentration of 30 mg ^10B/kg bw. Biodistribution was determined 1 and 3 h after termination of iv injection. Animals were euthanized by an overdose of sevoflurane following which tumors and normal tissues, consisting of ipsilateral brain, contralateral brain, blood, heart, lung, liver, spleen, kidney, skin, and muscle, were removed and weighed for ^10B determination by ICP-AES.

Substance: S-(2-(5-hydroxy-4-oxo-4H-pyran-2-yl) methyl) Thioundecahydro-Closo- Dodecaborate (2-) Disodium Salt [KA-BSH]
- 10B concentration, Kidney (10 mg 10B/kg, 1 h): 13.86 µg 10B/g
- 10B concentration, Kidney (10 mg 10B/kg, 3 h): 3.35 µg 10B/g
- 10B concentration, Kidney (20 mg 10B/kg, 1 h): 15.56 µg 10B/g
- 10B concentration, Kidney (20 mg 10B/kg, 3 h): 3.22 µg 10B/g
- 10B concentration, Kidney (30 mg 10B/kg, 1 h): 28.15 ± 7.96 µg 10B/g and 28.15 µg 10B/g
- 10B concentration, Kidney (30 mg 10B/kg, 3 h): 5.27 ± 0.63 µg 10B/g and 5.27 µg 10B/g
